From US20240376056A1, “PHENYL ACETAMIDE BASED IL-17A MODULATORS AND USES THEREOF” (DiCE Alpha, Inc., priority 2021, published 2024)

Amino acid sequences for entries named in this document (tags omitted). Residues count along the entry.
UniProt Q16552, 24-155 limits assumed: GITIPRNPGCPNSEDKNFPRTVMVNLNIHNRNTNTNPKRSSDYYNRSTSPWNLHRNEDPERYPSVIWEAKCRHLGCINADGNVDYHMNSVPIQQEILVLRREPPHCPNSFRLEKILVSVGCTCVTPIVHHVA

Target: IL-17A/A (Homo sapiens, UniProt Q16552)
Test: HEK-Blue IL-17A/A inhibition assay (SEAP reporter)
Conditions: read-out: IL-17 A/A Inhibition; HEK-Blue cells (HEK 293 expressing IL-17RA, IL-17RC, Act1); IL-17A/A stimulation; 20 hours; SEAP read at A630; 4-parameter fit
Method: The HEK-Blue #NC108637 […]. Cells were grown and prepared for assays according to the manufacturer's instructions. This cell line consists of HEK 293 cells that were designed to expressed IL-17R^A, IL-17RC, and the ActI adapter molecule, the combination of which. when stimulated by IL-17A/A activates a NFtcB promoter and drives expression of a recombinant Secreted Alkaline Phosphatase (SEAP) geneprotein. Media from the cells is then added to a development reagent (Quanti-Blue Substrate, Fisher #NC971 1613), and read at A630.
Compounds were titrated in DMSO. with a top final compound concentration of 10 uM, 1 uM, or 0.3 uM, and added to the cells immediately before adding IL-17A/A (Genscript #Z03228). The cells, compound, and IL-17A/A were then incubated for 20 hours before media was removed for SEAP analysis. The resulting inhibition curve was then analyzed using Graphpad Prism 7.0, and IC50 values were determined using a 4-parameter nonlinear fit. DMSO was added to a universal final concentration of 0.1% to optimze background.

CCn1nccc1C(=O)N[C@H](C(=O)Nc1ccc(CC(=O)NC(C(=O)NC)C(F)(F)F)cc1F)C1CCCCCC1 (some centres unmarked)
IC50: 100 to 1000 nM

Cc1cc(NC(=O)[C@@H](NC(=O)c2nonc2C2CC2)C(C2CC2)C2CC2)c(F)cc1C(C)C(=O)N(C)CC(F)(F)F (some centres unmarked)
IC50: < 100 nM
